# IntAct's records for PubMed 17052462
# B1: Catenin beta-1 (Homo sapiens), P35222 (parent)
# chain: MATQADLMELDMAMEPDRKAAVSHWQQQSYLDSGIHSGATTTAPSLSGKGNPEEEDVDTSQVLYEWEQGFSQSFTQEQVADIDGQYAMTRAQRVRAAMFPETLDEGMQIPSTQFDAAHPTNVQRLAEPSQMLKHAVVNLINYQDDAELATRAIPELTKLLNDEDQVVVNKAAVMVHQLSKKEASRHAIMRSPQMVSAIVRTMQNTNDVETARCTAGTLHNLSHHREGLLAIFKSGGIPALVKMLGSPVDSVLFYAITTLHNLLLHQEGAKMAVRLAGGLQKMVALLNKTNVKFLAITTDCLQILAYGNQESKLIILASGGPQALVNIMRTYTYEKLLWTTSRVLKVLSVCSSNKPAIVEAGGMQALGLHLTDPSQRLVQNCLWTLRNLSDAATKQEGMEGLLGTLVQLLGSDDINVVTCAAGILSNLTCNNYKNKMMVCQVGGIEALVRTVLRAGDREDITEPAICALRHLTSRHQEAEMAQNAVRLHYGLPVVVKLLHPPSHWPLIKATVGLIRNLALCPANHAPLREQGAIPRLVQLLVRAHQDTQRRTSMGGTQQQFVEGVRMEEIVEGCTGALHILARDVHNRIVIRGLNTIPLFVQLLYSPIENIQRVAAGVLCELAQDKEAAEAIEAEGATAPLTELLHSRNEGVATYAAAVLFRMSEDKPQDYKKRLSVELTSSLFRTEPMAWNETADLGLDIGAQGEPLGYRQDDPSYRSFHSGGYGQDALGMDPMMEHEMGGHHPGADYPVDGLPDLGHAQDLMDGLPPGDSNQLAWFDTDL
# partner: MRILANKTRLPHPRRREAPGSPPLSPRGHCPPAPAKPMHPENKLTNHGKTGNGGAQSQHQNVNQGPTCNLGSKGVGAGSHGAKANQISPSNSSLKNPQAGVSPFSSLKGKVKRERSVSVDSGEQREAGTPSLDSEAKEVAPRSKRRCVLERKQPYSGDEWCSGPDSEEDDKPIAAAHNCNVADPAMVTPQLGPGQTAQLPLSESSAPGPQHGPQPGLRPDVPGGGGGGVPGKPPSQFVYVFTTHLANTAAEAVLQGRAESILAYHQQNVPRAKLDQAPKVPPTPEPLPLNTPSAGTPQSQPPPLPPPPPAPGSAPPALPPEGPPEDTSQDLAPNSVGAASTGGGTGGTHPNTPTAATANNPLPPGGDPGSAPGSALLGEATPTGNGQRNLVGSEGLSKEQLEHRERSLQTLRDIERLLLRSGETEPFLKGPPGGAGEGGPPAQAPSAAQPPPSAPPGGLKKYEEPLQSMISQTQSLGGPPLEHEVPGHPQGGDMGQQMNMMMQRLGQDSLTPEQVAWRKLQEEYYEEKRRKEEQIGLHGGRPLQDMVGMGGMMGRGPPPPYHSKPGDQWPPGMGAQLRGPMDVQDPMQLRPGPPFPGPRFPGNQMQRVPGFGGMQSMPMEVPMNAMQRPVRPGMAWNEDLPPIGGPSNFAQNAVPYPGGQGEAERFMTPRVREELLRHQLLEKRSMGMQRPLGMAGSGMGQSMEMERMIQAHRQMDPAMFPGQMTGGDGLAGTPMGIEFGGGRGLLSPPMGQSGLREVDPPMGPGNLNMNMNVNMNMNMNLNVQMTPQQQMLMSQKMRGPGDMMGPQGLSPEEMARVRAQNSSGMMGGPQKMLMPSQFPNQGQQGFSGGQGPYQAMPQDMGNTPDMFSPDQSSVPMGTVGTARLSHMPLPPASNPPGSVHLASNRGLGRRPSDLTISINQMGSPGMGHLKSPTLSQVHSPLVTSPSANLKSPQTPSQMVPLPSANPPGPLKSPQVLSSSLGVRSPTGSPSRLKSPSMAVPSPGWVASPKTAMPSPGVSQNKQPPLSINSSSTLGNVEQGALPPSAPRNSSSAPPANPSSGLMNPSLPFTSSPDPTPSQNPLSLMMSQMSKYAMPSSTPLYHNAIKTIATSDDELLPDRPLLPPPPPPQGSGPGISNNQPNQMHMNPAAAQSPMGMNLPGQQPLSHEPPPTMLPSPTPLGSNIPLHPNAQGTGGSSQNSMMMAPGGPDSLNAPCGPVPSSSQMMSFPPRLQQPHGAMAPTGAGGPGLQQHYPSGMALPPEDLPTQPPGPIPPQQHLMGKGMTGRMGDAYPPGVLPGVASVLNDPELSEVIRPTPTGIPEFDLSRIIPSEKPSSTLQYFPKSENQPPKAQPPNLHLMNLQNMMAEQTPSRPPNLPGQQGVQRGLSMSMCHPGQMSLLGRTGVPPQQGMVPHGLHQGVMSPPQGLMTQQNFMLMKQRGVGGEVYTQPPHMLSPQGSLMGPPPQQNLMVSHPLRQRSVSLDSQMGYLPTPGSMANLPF
# Variants of: B1
# Conditions: with bcl9l_mouse Bcl9l
row,Variant,effect of a mutation on the interaction
1,Y142E,with no effect
